Laboratory results reported in paper PMC2682676 (Diabetes, 2009).

Details: after stop of the 180 min infusion; approached fasting levels by 360 min

plasma GIP levels upon termination of infusion: rapidly decreased
Compound: CC[C@H](C)[C@H](NC(=O)[C@H](CO)NC(=O)[C@H](Cc1ccc(O)cc1)NC(=O)[C@H](CC(=O)O)NC(=O)[C@H](CO)NC(=O)[C@@H](NC(=O)[C@H](Cc1ccccc1)NC(=O)[C@@H](NC(=O)CNC(=O)[C@H](CCC(=O)O)NC(=O)[C@H](C)NC(=O)[C@@H](N)Cc1ccc(O)cc1)[C@@H](C)O)[C@@H](C)CC)C(=O)N[C@@H](C)C(=O)N[C@@H](CCSC)C(=O)N[C@@H](CC(=O)O)C(=O)N[C@@H](CCCCN)C(=O)N[C@H](C(=O)N[C@@H](Cc1c[nH]cn1)C(=O)N[C@@H](CCC(N)=O)C(=O)N[C@@H](CCC(N)=O)C(=O)N[C@@H](CC(=O)O)C(=O)N[C@@H](Cc1ccccc1)C(=O)N[C@H](C(=O)N[C@@H](CC(N)=O)C(=O)N[C@@H](Cc1c[nH]c2ccccc12)C(=O)N[C@@H](CC(C)C)C(=O)N[C@@H](CC(C)C)C(=O)N[C@@H](C)C(=O)N[C@@H](CCC(N)=O)C(=O)N[C@@H](CCCCN)C(=O)NCC(=O)N[C@@H](CCCCN)C(=O)N[C@@H](CCCCN)C(=O)N[C@@H](CC(N)=O)C(=O)N[C@@H](CC(=O)O)C(=O)N[C@@H](Cc1c[nH]c2ccccc12)C(=O)N[C@@H](CCCCN)C(=O)N[C@@H](Cc1c[nH]cn1)C(=O)N[C@@H](CC(N)=O)C(=O)N[C@H](C(=O)N[C@H](C(=O)N[C@@H](CCC(N)=O)C(=O)O)[C@@H](C)O)[C@@H](C)CC)C(C)C)[C@@H](C)CC [GIP, Glucose-dependent insulinotropic polypeptide]
